Data from patent publication US20220031713A1, “METHODS OF TREATING MYELOPROLIFERATIVE DISORDERS” (Impact Biomedicines, Inc., priority 2018, published 2022).

Sequences of proteins named here, by UniProt entry; tags and fusion partners are left off. A change or cut given only in a name is not applied to a line headed by its entry.
UniProt O60674: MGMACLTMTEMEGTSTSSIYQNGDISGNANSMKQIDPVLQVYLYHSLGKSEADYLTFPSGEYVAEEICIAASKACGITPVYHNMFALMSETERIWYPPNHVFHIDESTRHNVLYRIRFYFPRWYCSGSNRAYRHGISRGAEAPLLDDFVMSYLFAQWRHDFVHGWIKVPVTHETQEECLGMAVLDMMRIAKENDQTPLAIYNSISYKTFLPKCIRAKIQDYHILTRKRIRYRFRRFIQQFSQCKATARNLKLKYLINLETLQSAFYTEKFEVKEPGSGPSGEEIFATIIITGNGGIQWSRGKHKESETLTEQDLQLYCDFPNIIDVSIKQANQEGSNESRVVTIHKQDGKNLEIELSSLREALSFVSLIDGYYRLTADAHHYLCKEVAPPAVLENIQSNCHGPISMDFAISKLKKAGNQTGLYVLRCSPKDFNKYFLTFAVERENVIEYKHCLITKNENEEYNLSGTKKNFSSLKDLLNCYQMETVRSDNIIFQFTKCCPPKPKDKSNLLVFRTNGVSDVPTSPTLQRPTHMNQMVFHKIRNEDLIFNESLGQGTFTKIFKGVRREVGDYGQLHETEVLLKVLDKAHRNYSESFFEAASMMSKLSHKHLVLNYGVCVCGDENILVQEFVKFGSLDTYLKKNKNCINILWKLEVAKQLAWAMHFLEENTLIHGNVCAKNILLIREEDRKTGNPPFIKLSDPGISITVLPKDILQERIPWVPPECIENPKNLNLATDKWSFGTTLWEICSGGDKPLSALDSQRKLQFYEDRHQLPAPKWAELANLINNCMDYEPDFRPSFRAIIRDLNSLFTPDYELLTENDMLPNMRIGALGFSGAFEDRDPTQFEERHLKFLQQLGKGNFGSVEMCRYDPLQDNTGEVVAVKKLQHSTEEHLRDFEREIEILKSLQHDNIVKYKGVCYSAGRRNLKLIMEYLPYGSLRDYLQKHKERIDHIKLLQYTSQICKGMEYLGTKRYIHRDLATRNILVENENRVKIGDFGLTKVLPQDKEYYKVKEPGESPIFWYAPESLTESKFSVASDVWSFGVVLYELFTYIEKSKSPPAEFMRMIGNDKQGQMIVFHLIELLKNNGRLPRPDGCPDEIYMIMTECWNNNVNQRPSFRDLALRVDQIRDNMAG

Biological target: JAK2 (Homo sapiens, UniProt O60674)
Test: JAK2 kinase activity inhibition
Assay type: biochemical

inhibition of JAK2 kinase activity: potent and selective inhibitor
Compound: Cc1cnc(Nc2ccc(OCCN3CCCC3)cc2)nc1Nc1cccc(S(=O)(=O)NC(C)(C)C)c1 [Compound I, fedratinib]
